This passage reports inhibition results from PubChem BioAssay AID588475 (Sanford-Burnham Center for Chemical Genomics, 2011).

The entries are a selection whose mix differs from that of the whole data set. Calls of active or inactive are those of the source.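 How the source made its calls: active means inhibition of the ligand-induced calcium signal above about 50% at the single tested concentration (limit read from the data); inactive means the rest.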

The assay is described as follows: antagonists of CRF-BP/CRF-R2 complex, primary screen, cell-based, HEK293, calcium dye fluorescence, uHTS (AID 588475). Particulars: CRF-induced calcium fluorescence, at 11.8 µM, active compounds read high.
Turning to `CCC(=O)N(c1ccccc1)C1(COC)CCN(CCn2nnn(CC)c2=O)CC1`, the inhibition – broadly, the change of the read-out against control, counted positive when it falls – is inactive: 3.31%.

As to `CCC(=O)N(c1ccccc1)C1(COC)CCN(CCc2cccs2)CC1`, the inhibition is inactive: -5.95%.
